Measured values published in patent US8648078B2, “PLK inhibitor salts” (Nerviano Medical Sciences S.R.L., priority 2009, dated 2014).

Test: Aqueous solubility of compound 937 salts and free base (excess solid stirred in water, filtered, HPLC)
Format: physicochemical
Conditions: RT, stirred 4 hours, excess solid (target 10 mg/ml)
Description: The obtained preparations have been filtered and analyzed by means of HPLC.

With CN1CCN(c2ccc(OC(F)(F)F)c(Nc3ncc4c(n3)-c3c(c(C(N)=O)nn3CCO)CC4)c2)CC1.O=C(O)C(O)C(O)C(=O)O [compound 937 L-tartrate salt] the aqueous solubility was 1900 µg/mL.
